One assay concerns the target FGFR4 kinases (Homo sapiens, UniProt P22455). In words: In vitro enzyme activity test, Z′-LYTE Assay, FGFR4 enzymatic reaction. To be noted: read-out: FGFR4 IC50; Z′-LYTE detection; 150 μM ATP. On the procedure:
(§1) The inhibitory effects of the compounds on FGFR4 kinases were assessed by detecting the enzymatic activities through Z′-LYTE® Assay, with the IC50 value of the compound as the indicator. This activity test was performed by Life technology.
(§2) The test compounds were diluted in a concentration gradient of 3-times, the final concentrations were 10 concentrations ranging from 10 μM to 0.5 nM, with double hole for each concentration; the content of DMSO in the detection reaction was 1%.
FGFR4 Enzymatic Reaction:
[…] The detection plate was Bar-coded Corning, low volume NBS, black 384-well plate, reaction conducted at room temperature for 60 minutes, and the reaction system was 10μμL.
(§3) To the kinase reaction solution was added 5 μL Development reagent B (1:64) to stop the reaction and incubated at 23° C. for 60 minutes, reading the plate with Envision instrument.
(§4) Data was transformed into the phosphorylation rate and the inhibitory rate by curve fitting with Model 205 in XLFIT (iDBS) to obtain the IC50 data of the compounds. It was set as 0% if the bottom of the curve was not in the range of −20% to 20%; otherwise it was set as 100% if the top of the curve was not in the range of 70% to 130%.

The chains behind the UniProt entries cited, without tags or fusion partners. Residues count along the entry.
UniProt P22455, 22-802 limits assumed: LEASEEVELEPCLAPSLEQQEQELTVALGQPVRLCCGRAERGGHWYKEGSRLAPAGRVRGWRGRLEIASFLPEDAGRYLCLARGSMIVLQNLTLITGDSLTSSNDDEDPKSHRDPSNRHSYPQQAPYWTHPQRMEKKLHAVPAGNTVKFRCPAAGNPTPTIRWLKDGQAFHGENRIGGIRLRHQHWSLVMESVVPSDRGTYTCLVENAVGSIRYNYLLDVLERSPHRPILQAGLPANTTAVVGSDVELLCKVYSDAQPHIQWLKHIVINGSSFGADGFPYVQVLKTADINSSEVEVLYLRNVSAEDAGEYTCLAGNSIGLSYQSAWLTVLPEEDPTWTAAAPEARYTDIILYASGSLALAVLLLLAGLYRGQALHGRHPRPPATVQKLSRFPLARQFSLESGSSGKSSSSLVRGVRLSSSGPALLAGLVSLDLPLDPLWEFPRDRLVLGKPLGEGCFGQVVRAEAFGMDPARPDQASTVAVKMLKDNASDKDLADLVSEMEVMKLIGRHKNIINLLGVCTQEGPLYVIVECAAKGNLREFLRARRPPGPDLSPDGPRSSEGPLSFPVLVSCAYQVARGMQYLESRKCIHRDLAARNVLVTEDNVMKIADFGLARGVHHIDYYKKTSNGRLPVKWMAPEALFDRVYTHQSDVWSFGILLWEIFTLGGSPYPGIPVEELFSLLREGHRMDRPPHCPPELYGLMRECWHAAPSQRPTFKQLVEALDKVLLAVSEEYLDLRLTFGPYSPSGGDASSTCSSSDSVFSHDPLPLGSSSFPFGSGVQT
UniProt P11362, 22-822 limits assumed: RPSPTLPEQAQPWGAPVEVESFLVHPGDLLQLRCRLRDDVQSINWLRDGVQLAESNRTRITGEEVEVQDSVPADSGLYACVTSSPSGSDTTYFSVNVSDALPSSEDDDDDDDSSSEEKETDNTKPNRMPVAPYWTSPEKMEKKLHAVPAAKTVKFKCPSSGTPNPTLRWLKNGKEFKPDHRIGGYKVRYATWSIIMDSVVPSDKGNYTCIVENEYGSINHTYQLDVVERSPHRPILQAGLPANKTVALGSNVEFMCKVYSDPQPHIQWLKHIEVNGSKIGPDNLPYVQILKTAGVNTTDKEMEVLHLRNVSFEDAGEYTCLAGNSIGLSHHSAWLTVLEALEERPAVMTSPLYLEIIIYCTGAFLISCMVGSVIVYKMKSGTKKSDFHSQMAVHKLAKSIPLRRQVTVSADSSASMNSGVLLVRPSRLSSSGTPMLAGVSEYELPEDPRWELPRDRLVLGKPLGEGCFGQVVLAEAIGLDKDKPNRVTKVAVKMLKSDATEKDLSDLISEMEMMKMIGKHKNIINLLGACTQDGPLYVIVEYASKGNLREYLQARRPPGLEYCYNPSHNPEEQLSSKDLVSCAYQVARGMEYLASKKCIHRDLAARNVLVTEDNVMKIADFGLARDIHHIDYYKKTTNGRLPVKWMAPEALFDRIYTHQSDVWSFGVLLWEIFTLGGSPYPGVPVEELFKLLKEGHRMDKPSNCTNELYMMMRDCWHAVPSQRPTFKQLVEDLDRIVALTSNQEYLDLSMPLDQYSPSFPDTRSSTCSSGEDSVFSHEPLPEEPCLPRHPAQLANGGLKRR

The next assay has as its target FGFR1 protein kinase (Homo sapiens, UniProt P11362). Briefly: In vitro enzyme activity test, Z′-LYTE Assay, FGFR1 enzymatic reaction. The settings on record: read-out: FGFR1 IC50; Z′-LYTE detection; 25 μM ATP. Here is the method: as §1, §2
FGFR1 Enzymatic Reaction:
1 nM FGFR1 protein kinase, 2 μM Tyr4 peptide, 25 μM ATP, 50 mM HEPES (pH 7.5), 10 mM MgCl2, 1 mM EGTA, 0.01% BRIJ-35, 2 mM MnCl2, 1 mM DTT. The detection plate was Black Proxiplate 384-Plus plate (PerkinElmer), reaction conducted at room temperature for 60 minutes, and the reaction system was 10μμL.
as §3, §4

Structures are written as SMILES. Some results are limits rather than exact numbers.

`C=CC(=O)Nc1cccc(C)c1Nc1ncc(/C(F)=C/c2c(Cl)c(OC)cc(OC)c2Cl)c(C)n1`: the IC50 (as a rule, the concentration that inhibits the measured activity by half) at FGFR4 kinases is 993 nM; at FGFR1 protein kinase it was over 10 µM.

The values above are taken from patent US11008292B2, “FGFR4 inhibitor and preparation method and use thereof” (GUANGDONG ZHONGSHENG PHARMACEUTICAL CO., LTD, priority 2016, dated 2021).
